{"source": "ChEMBL document CHEMBL4152267", "about": "“Structure-based design of novel quinoxaline-2-carboxylic acids and analogues as Pim-1 inhibitors” (Eur J Med Chem, 2018)", "key": {"Homo sapiens [1]": {"species": "Homo sapiens", "assay": "Selectivity ratio of IC50 for recombinant human CDK9/CyclinT expressed in baculovirus infected Sf9 insect cells to IC50 for recombinant human Pim1 expressed in bacterial expression system"}, "[2]": {"assay": "Selectivity ratio of IC50 for recombinant mouse CLK1 expressed in bacterial expression system to IC50 for recombinant human Pim1 expressed in bacterial expression system"}, "[3]": {"assay": "Selectivity ratio of IC50 for recombinant rat DYRK1A kinase domain (1 to 499 residues) expressed in bacterial expression system to IC50 for recombinant human Pim1 expressed in bacterial expression system"}, "[4]": {"assay": "Selectivity ratio of IC50 for porcine brain GSK-3alpha/beta to IC50 for recombinant human Pim1 expressed in bacterial expression system"}, "Homo sapiens [5]": {"species": "Homo sapiens", "assay": "Selectivity ratio of IC50 for human CDK2/CyclinA to IC50 for recombinant human Pim1 expressed in bacterial expression system"}, "[6]": {"assay": "Selectivity ratio of IC50 for porcine brain CK1delta/epsilon to IC50 for recombinant human Pim1 expressed in bacterial expression system"}, "Homo sapiens [7]": {"species": "Homo sapiens", "assay": "Selectivity ratio of IC50 for recombinant human haspin kinase domain (470 to 798 residues) expressed in bacterial expression system to IC50 for recombinant human Pim1 expressed in bacterial expression system"}}, "data": [{"smiles": "O=C(O)c1nc2ccccc2nc1Nc1cccc(O)c1", "values": [{"measurement": "Ratio IC50", "setting": "Homo sapiens [1]", "result": "> 130"}, {"measurement": "Ratio IC50", "setting": "[2]", "result": "> 130"}, {"measurement": "Ratio IC50", "setting": "[3]", "result": 3.5}, {"measurement": "Ratio IC50", "setting": "[4]", "result": "> 130"}, {"measurement": "Ratio IC50", "setting": "Homo sapiens [5]", "result": "> 130"}, {"measurement": "Ratio IC50", "setting": "[6]", "result": "> 130"}, {"measurement": "Ratio IC50", "setting": "Homo sapiens [7]", "result": "> 130"}]}, {"smiles": "O=C(O)c1nc2ccccc2nc1Nc1cccc(N2CCOCC2)c1", "values": [{"measurement": "Ratio IC50", "setting": "Homo sapiens [1]", "result": "> 10"}, {"measurement": "Ratio IC50", "setting": "[2]", "result": "> 10"}, {"measurement": "Ratio IC50", "setting": "[3]", "result": "> 10"}, {"measurement": "Ratio IC50", "setting": "[4]", "result": "> 10"}, {"measurement": "Ratio IC50", "setting": "Homo sapiens [5]", "result": "> 10"}, {"measurement": "Ratio IC50", "setting": "[6]", "result": "> 10"}, {"measurement": "Ratio IC50", "setting": "Homo sapiens [7]", "result": "> 10"}]}]}
